We go through one compound from ChEMBL document CHEMBL1134461, “Hexahydrochromeno[4,3-b]pyrrole derivatives as acetylcholinesterase inhibitors” (J Med Chem, 2001).

Chains of the proteins cited; added tags and fusions are not shown. Lines headed by an entry give the natural chain unless they say otherwise; changes in a name come on top.
UniProt P22303: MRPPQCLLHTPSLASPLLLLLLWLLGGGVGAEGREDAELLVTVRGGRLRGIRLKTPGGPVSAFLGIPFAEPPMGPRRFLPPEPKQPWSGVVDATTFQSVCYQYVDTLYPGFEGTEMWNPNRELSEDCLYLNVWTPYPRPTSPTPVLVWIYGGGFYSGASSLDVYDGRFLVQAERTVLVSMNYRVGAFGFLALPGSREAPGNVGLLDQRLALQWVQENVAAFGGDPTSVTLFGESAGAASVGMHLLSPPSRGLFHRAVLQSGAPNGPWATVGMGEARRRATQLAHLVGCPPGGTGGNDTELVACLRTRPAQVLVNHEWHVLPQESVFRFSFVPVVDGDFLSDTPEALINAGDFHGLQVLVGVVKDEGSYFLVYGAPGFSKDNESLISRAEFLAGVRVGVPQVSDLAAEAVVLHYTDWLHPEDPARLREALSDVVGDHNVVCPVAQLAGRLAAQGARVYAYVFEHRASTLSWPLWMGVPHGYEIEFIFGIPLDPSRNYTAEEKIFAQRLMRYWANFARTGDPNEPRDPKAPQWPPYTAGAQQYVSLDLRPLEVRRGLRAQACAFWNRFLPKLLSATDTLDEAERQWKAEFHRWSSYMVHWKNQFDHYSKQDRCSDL

The structures appear in SMILES notation.

The assay has as its target Acetylcholinesterase (Homo sapiens, UniProt P22303).

`CNC(=O)Oc1ccc2c(c1)[C@]1(C)CCN(C)[C@@H]1N2C`: the k3 is 9 min⁻¹.
